Data reported in PMC6547681 (Nature Communications, 2019).
“And” between values parts separate entries of the source, which are not always exact repeats. Equal values may be shown once.

Protein sequences, listed by entry. Tags and fused reporters are not part of them. Chains listed by the source or under a name are the forms on record and can include a tag or linker.
UniProt P10415, with tags, fused parts or gaps G101V/E152A: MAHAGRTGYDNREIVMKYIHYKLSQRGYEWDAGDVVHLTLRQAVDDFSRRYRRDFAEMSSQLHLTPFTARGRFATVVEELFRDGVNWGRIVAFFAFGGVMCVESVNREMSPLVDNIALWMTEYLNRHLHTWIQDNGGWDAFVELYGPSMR

Biological target: BCL-2 G101V/E152A double mutant (Homo sapiens, UniProt P10415, E152A/G101V)
Test: Steady-state competition SPR against immobilised BIMBH3 peptide, BCL-2 G101V/E152A double mutant
Assay type: binding
Conditions: competition vs BIMBH3 SPR surface, mean ± SD, n ≥ 2, read-out: S55746 KI (mean)
Protocol: SPR experiments were performed as previously described. […] The lowest concentrations used in direct binding experiments were 1 nM for BIAcore 4000 and 0.1 nM for BIAcore S200 instruments, concentrations below these were below the sensitivity thresholds for the instruments. […] Direct binding experiments were fitted to a 1:1 binding site kinetic model, fitting on and off rates, in BIAevaluation software. For competition experiments steady-state responses were determined in BIAevaluation software according to the software defaults in affinity evaluation mode averaging responses for 5 sec. […] All affinity measurements were performed in at least two independent experiments using independent protein preparations.

Structure (SMILES): O=C(c1cc(-c2cc3c(cc2C(=O)N2Cc4ccccc4C[C@H]2CN2CCOCC2)OCO3)n2c1CCCC2)N(c1ccccc1)c1ccc(O)cc1 [S55746]
- Ki: 5.3 nM and 5.32 nM
